US7056931B2, “2-substituted 1,2,3,4-tetrahydroquinolines and derivatives thereof, compositions and methods” (Eli Lilly and Company, priority 2001, dated 2006)

The chains behind the UniProt entries cited, without tags or fusion partners.
UniProt Q92731, whole entry: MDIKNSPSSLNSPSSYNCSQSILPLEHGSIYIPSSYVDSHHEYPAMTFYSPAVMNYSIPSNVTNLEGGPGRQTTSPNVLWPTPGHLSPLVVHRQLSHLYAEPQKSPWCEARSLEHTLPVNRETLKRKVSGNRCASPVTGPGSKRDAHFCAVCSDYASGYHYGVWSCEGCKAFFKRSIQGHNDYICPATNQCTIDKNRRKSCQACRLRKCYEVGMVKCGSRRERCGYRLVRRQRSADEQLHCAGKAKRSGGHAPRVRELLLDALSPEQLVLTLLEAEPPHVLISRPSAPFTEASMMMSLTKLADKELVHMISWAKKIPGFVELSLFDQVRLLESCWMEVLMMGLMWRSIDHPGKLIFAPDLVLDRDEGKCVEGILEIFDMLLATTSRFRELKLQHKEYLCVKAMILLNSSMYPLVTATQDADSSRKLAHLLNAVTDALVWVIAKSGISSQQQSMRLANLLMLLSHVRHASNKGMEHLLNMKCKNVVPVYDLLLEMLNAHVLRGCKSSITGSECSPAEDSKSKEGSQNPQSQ

Target: T1, ERbeta receptor (PanVera) (Homo sapiens, UniProt Q92731)
T1 construct: purchased PanVera
Assay: ER competition binding assay (3H-Estradiol), ERbeta
Details: IC50 converted to Ki by Cheng-Prusoff; 3H-Estradiol competition; A = class at 10 microMolar; read-out: Ki (ERβ)
Procedure: Competition binding assay is run in a buffer containing 50 mM Hepes, pH 7.5, 1.5 mM EDTA, 150 mM NaCl, 10% glycerol, 1 mg/ml ovalbumin and 5 mM DTT, using 0.025 μCi per well ^3H-Estradiol(NEN #NET517 at 118 Ci/mmol, 1 mCi/ml), 10 ng/well ERAlpha or ERbeta receptor (PanVera). Competing compounds are added at 10 different concentrations. Non-specific binding is determined in the presence of 1 μM of 17-B Estradiol. The binding reaction (140 μl) is incubated for 4 hours at room temperature, then 70 μl of cold DCC buffer is added to each reaction (DCC buffer contains per 50 ml of assay buffer, 0.75 g of charcoal (Sigma) and 0.25 g of dextran (Pharmacia)). Plates are mixed 8 minutes on an orbital shaker at 4° C. Plates are then centrifuged at 3,000 rpm at 4° C. for 10 minutes. An aliquot of 120 μl of the-mix is transferred to another 96-well, white flat bottom plate (Costar) and 175 μl of Wallac Optiphase “Hisafe 3” scintillation fluid is added to each well. Plates are sealed and shaken vigorously on an orbital shaker. After an incubation of 2.5 hrs, read plates in a Wallac Microbeta counter. […] The Kd for ^3H-Estradiol is determined by saturation binding to ER alpha and ER beta receptors. The IC50 values for compounds are converted to Ki using Cheng-Prusoff equation and the Kd determined by saturation binding assay.

Work on `O=C(c1ccc(OCCN2CCCCC2)cc1)N1c2ccc(O)cc2CCC1c1ccccc1` (stereo not shown) [Example 4] yielded a Ki of 376 nM.
